In patent US20260042764A1, “COMPOSITIONS AND METHODS FOR INHIBITION OF KRAS” (TheRas, Inc., priority 2022, published 2026):
Where two headings read alike, the source gives them in different places.

The chains behind the UniProt entries cited, without tags or fusion partners. Residues count along the entry.
UniProt P01116, 1-169 isoform 2 limits assumed: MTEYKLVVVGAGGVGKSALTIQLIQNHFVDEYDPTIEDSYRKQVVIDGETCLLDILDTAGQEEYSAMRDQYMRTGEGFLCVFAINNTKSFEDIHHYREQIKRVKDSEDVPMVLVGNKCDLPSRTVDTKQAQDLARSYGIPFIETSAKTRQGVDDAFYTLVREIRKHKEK
UniProt P01116, 1-169 isoform 2 G12D limits assumed: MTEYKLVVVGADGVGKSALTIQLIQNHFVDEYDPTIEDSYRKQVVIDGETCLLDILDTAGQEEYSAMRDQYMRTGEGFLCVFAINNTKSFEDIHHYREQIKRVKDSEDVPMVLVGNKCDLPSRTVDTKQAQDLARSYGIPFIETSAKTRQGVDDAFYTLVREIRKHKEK
UniProt P01116, 1-169 isoform 2 G12R limits assumed: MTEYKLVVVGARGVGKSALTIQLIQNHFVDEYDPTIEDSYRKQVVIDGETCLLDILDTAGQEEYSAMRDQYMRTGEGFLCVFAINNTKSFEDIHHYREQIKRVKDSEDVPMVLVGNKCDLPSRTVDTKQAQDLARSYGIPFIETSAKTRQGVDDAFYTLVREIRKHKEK
UniProt P01116, 1-169 isoform 2 G12V limits assumed: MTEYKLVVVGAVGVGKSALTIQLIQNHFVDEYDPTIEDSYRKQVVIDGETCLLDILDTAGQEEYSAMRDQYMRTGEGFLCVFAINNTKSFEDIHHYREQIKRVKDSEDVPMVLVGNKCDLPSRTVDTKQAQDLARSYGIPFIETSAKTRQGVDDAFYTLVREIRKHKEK

How the values were obtained:
[1] = biological target: Avi-KRAS G12D (1-169) GppNHp/RAF1 RBD-3xFLAG (52-151) (Homo sapiens, UniProt P01116, G12D); test: Raf1-KRAS G12D-GppNHP disruption HTRF assay (Biological Example 1); conditions: read-out: Raf1-GppNHp-KRAS G12D disruption
[2] = biological target: Avi-KRAS G12R (1-169) GppNHp/RAF1 RBD-3xFLAG (52-151) (Homo sapiens, UniProt P01116, G12R); test: Raf1-KRAS G12R-GppNHP disruption HTRF assay (Biological Example 1); conditions: read-out: Raf1-GppNHp-KRAS G12R disruption
[3] = biological target: Avi-KRAS G12V (1-169) GppNHp/RAF1 RBD-3xFLAG (52-151) (Homo sapiens, UniProt P01116, G12V); test: Raf1-KRAS G12V-GppNHP disruption HTRF assay (Biological Example 1); conditions: read-out: Raf1-GppNHp-KRAS G12V disruption
[4] = biological target: Avi-KRAS WT (1-169) GppNHp/RAF1 RBD-3xFLAG (52-151) (Homo sapiens, UniProt P01116); test: Raf1-KRAS WT-GppNHP disruption HTRF assay (Biological Example 1); conditions: read-out: Raf1-GppNHp-KRAS WT disruption
GP2d cells (KRAS G12D) = test: Cell-based pERK HTRF assay in GP2d cell (Biological Example 2)
SW620 cells (KRAS G12V) = test: Cell-based pERK HTRF assay in SW620 cell (Biological Example 4)
[5] = KRAS G12D, GppNHp-loaded, class symbols
[6] = KRAS G12R, GppNHp-loaded, class symbols
[7] = KRAS G12V, GppNHp-loaded, class symbols
[8] = KRAS WT, GppNHp-loaded, class symbols
[9] = read-out: PERK-Gp2D-, pERK HTRF, class symbols
[10] = read-out: PERK-SW620, pERK HTRF, class symbols
[11] = read-out: PERK-Gp2D-, pERK HTRF
[12] = read-out: PERK-SW620, pERK HTRF

Compound	IC50 [1, 5]	IC50 [2, 6]	IC50 [3, 7]	IC50 [4, 8]	IC50 (GP2d cells (KRAS G12D); [9])	IC50 (SW620 cells (KRAS G12V); [10])	IC50 ([1]; KRAS G12D-GppNHp/RAF1 RBD HTRF)	IC50 ([2]; KRAS G12R-GppNHp/RAF1 RBD HTRF)	IC50 ([3]; KRAS G12V-GppNHp/RAF1 RBD HTRF)	IC50 ([4]; KRAS WT-GppNHp/RAF1 RBD HTRF)	IC50 (GP2d cells (KRAS G12D); [11])	IC50 (SW620 cells (KRAS G12V); [12])	IC50 ([1]; KRAS G12D, GppNHp-loaded, Table 11)	IC50 ([2]; KRAS G12R, GppNHp-loaded, Table 11)	IC50 ([3]; KRAS G12V, GppNHp-loaded, Table 11)	IC50 ([4]; KRAS WT, GppNHp-loaded, Table 11)
CCN(c1nc(OC[C@]23CCCN2C[C@H](OC)C3)nc2c(F)c(-c3ccc(F)c4sc(N)c(C#N)c34)c(C(F)(F)F)cc12)[C@H]1CCN(C(=O)C(C)C)C1	100 to 1000 nM	100 to 1000 nM	100 to 1000 nM	100 to 1000 nM	< 100 nM	100 to 1000 nM	–	–	–	–	–	–	–	–	–	–
CCN(c1nc(OC[C@@]23CCCN2C[C@H](OC)C3)nc2c(F)c(-c3ccc(F)c4sc(N)c(C#N)c34)c(C(F)(F)F)cc12)[C@H]1CCN(C(=O)C(C)C)C1	< 100 nM	< 100 nM	100 to 1000 nM	< 100 nM	< 100 nM	< 100 nM	–	–	–	–	–	–	–	–	–	–
N#Cc1c(N)sc2c(F)ccc(-c3c(C(F)(F)F)cc4c(N5C[C@@H]6C[C@@H](O)[C@H]5C6)nc(OC[C@@]56CCCN5C[C@H](F)C6)nc4c3F)c12	–	–	–	–	–	–	100 to 1000 nM	100 to 1000 nM	1000 to 10000 nM	100 to 1000 nM	< 100 nM	< 100 nM	–	–	–	–
CCN(c1nc(OC[C@@]23CCCN2C[C@H](F)C3)nc2c(F)c(-c3ccc(F)c4sc(N)c(C#N)c34)c(Cl)cc12)[C@@H]1CCN(C(=O)C2CC2)[C@H]1C	–	–	–	–	–	–	100 to 1000 nM	1000 to 10000 nM	1000 to 10000 nM	100 to 1000 nM	< 100 nM	100 to 1000 nM	–	–	–	–
CC(=O)N1CC[C@H](N(C)c2nc(OC[C@@]34CCCN3C[C@H](F)C4)nc3c(F)c(-c4ccc(F)c5sc(N)c(C#N)c45)c(C(F)(F)F)cc23)C1	–	–	–	–	–	–	–	–	–	–	< 100 nM	< 100 nM	< 100 nM	100 to 1000 nM	100 to 1000 nM	100 to 1000 nM
CC(C)C(=O)N1CC[C@@H](N(C)c2nc(OC[C@@]34CCCN3C[C@H](F)C4)nc3c(F)c(-c4ccc(F)c5sc(N)c(C#N)c45)c(Cl)cc23)[C@H]1C	–	–	–	–	–	–	100 to 1000 nM	100 to 1000 nM	1000 to 10000 nM	100 to 1000 nM	< 100 nM	100 to 1000 nM	–	–	–	–
N#Cc1c(N)sc2c(F)ccc(-c3c(Cl)cc4c(N5CC6CC(C5)O6)nc(OC[C@@]56CCCN5C[C@H](F)C6)nc4c3F)c12	–	–	–	–	–	–	100 to 1000 nM	100 to 1000 nM	100 to 1000 nM	100 to 1000 nM	< 100 nM	< 100 nM	–	–	–	–
